Molecules are shown by their SMILES.

By UniProt entry, the sequences of proteins in these tests, tags left out.
UniProt P28223, whole entry: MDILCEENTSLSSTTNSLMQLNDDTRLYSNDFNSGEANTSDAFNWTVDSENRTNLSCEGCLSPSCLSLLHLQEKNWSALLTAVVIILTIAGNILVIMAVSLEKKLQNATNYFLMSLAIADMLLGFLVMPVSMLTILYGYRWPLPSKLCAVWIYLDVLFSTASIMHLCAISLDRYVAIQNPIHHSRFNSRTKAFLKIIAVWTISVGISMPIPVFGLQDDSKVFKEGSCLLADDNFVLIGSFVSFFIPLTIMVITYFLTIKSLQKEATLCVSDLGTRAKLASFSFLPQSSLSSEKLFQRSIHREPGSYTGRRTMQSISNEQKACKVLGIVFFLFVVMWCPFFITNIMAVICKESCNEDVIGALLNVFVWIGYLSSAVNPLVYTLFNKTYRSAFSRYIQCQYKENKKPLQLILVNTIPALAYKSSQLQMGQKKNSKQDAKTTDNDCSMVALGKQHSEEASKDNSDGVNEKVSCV
UniProt P10635, whole entry: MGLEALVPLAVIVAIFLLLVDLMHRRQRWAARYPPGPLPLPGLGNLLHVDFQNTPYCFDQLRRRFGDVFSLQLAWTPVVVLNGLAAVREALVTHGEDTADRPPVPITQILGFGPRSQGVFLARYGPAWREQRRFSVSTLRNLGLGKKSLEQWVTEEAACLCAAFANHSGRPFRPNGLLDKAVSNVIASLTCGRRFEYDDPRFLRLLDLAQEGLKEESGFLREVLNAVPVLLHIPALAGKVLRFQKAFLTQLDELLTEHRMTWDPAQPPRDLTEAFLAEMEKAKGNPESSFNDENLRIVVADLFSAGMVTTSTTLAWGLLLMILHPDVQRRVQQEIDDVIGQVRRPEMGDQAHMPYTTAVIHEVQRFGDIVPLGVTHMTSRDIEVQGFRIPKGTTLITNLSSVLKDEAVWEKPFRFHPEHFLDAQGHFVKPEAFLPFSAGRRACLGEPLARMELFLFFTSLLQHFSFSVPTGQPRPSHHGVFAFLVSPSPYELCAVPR

For data set [1], the target named is T1, 5HT2A receptor (Homo sapiens, UniProt P28223). The data set is described as follows: Downstream calcium flux functional activity assay, method 1 (HEK293 cells stably expressing the receptor). To be noted: for Ca^2+ flux Assay Emax%: method 1, highest concentration of 5-HT = 100%; for EC50: read-out: Ca^2+ flux Assay EC50, method 1, HEK293-5HT2AR cells. A general note: A change in cytosolic calcium serves as a functional read-out for many receptors and channels.

A short description of data set [2]: Metabolic property test 5.1, plasma pharmacokinetics after single intraperitoneal injection. The settings on record: for AUCINF / AUClast / Cmax / T1/2 / Tmax: mouse plasma, 15 mg/kg single intraperitoneal injection.
Another data set addresses CYP2D6 enzyme (Homo sapiens, UniProt P10635). The data set is described as follows: Drug interaction test, CYP2D6 inhibition in human liver microsomes. To be noted: read-out: CYP2D6 inhibition IC50; human liver microsomes 0.1 mg/mL, dextromethorphan probe substrate. (Liver microsomes are vesicles of endoplasmic reticulum, rich in cytochrome P450 enzymes.)
For data set [3], the target named is T1, 5HT2A receptor. Briefly: Affinity assay for 5-HT2A receptor, radioligand competition with [3H]-ketanserin. The settings on record: read-out: [3H]Ketanserin Ki; membranes of HEK293 cells stably expressing the 5-HT2A receptor.
A short description of data set [4]: Mouse plasma protein binding (PPB), free fraction Fu.
In data set [5] the target is T1, 5HT2A receptor. The data set is described as follows: Downstream beta-arrestin functional activity assay, method 1 (NanoBit). The settings on record: for β-arrestin Emax%: method 1, highest concentration of 5-HT = 100%; for EC50: read-out: β-arrestin EC50, method 1, HEK293 cells.
Data set [6] can be described thus: Metabolic property test 5.2, plasma pharmacokinetics after intravenous injection and oral gavage. The settings on record: for F: P.O 10 mg/kg vs i.v 2 mg/kg, F(%) = (AUC0-inf-PO/AUC0-inf-IV)/(DosePO/DoseIV) × 100.
Data set [7] deals with T1, 5HT2A receptor. Briefly: Downstream calcium flux functional activity assay, method 2 (HEK293 cells transiently transfected). To be noted: for Ca^2+ flux Assay Emax%: method 2, highest concentration of 5-HT = 100%; for EC50: read-out: Ca^2+ flux Assay EC50, method 2, transiently transfected HEK293 cells.
In data set [8] the target is T1, 5HT2A receptor. The data set is described as follows: Downstream beta-arrestin functional activity assay, method 2 (NanoBret). The settings on record: for β-arrestin Emax%: method 2, highest concentration of 5-HT = 100%; for EC50: read-out: β-arrestin EC50, method 2, HEK293 cells.
Another data set concerns C57BL/6J mice. The data set is described as follows: Head-twitch response (HTR) experiment on mice. The settings on record: test substance 50 mg/kg intraperitoneally.
In a further data set the test system is C57BL/6J male mice. Briefly: Animal depression-like behavior test, forced swimming test (FST). The settings on record: result in words, vs solvent control.

For orientation: EC50 means the concentration needed to bring the measured effect to its halfway point. By Cmax is commonly meant the maximum level reached in the sampled fluid or tissue. Broadly, the Tmax is the time at which the peak concentration occurs. For orientation: IC50 means the concentration needed to halve the response being measured. In general, Ki refers to the dissociation constant of the complex between target and ligand, obtained from inhibition or displacement. As to `CN1CCN2c3c(cccc31)[C@@H]1CN(CCCc3cccc4c3OCO4)CC[C@@H]12`, at 5HT2A receptor [1], the “Ca^2+ flux Assay Emax%” value was 0.88% and the EC50 is over 100 µM. In addition, in [2], the AUCINF worked out at 1.427 µg·h/mL, the AUClast was determined as 1.422 µg·h/mL, the Cmax was 0.344 µg/mL and the T1/2 amounted to 3.0 h. In addition, in [2], the Tmax is 0.033 h. The IC50 on CYP2D6 enzyme came out at 0.604 µM. Moreover, on 5HT2A receptor [3], the Ki worked out at 0.0187 µM. The “Mouse PPB Fu” value in [4] was found to be 1.96%.

Regarding `CN1CCN2c3c(cccc31)[C@@H]1CN(CCCc3cccc4c3OCC4)CC[C@@H]12`, on 5HT2A receptor [1], the “Ca^2+ flux Assay Emax%” value is given as 0.75% and the EC50 is over 100 µM. In addition, at 5HT2A receptor [5], the “β-arrestin Emax%” value is listed as 28.99% and the EC50 stood at 0.0203 µM. The inhibition constant Ki on 5HT2A receptor [3] came to 0.0134 µM.

Consider `CN1CCN2c3c(cccc31)[C@@H]1CN(CCCc3ccccc3OC(F)F)CC[C@@H]12`, for which, at 5HT2A receptor [1], the “Ca^2+ flux Assay Emax%” value turned out to be 6.42% and the EC50 was over 100 µM. In addition, on 5HT2A receptor [5], the “β-arrestin Emax%” value worked out at 23.62% and the EC50 is 0.0359 µM. The Ki on 5HT2A receptor [3] is 0.0299 µM.

`CN1CCN2c3c(cccc31)[C@@H]1CN(CCCC(=O)c3ccc(F)cc3)CC[C@@H]12`: the F in [6] is recorded as 2.3%. In data set [6] (P.O 10 mg/kg, mouse plasma), the “AUC 0-inf” value is 0.054 µg·h/mL and the t1/2 was found to be 2.4 h. In data set [6] (i.v 2 mg/kg, mouse plasma), the “AUC 0-inf” value worked out at 0.463 µg·h/mL, the C1 was 4.32 L/h/kg, the Vd worked out at 11.2 L/kg and the t1/2 was determined as 1.98 h.

Consider `COc1cccnc1CCCN1CC[C@H]2[C@@H](C1)c1cccc3c1N2CCN3C`, for which, on 5HT2A receptor [1], the “Ca^2+ flux Assay Emax%” value was -0.07% and the EC50 is over 100 µM. In addition, at 5HT2A receptor [5], the “β-arrestin Emax%” value is given as 16.34% and the 50% effective concentration (EC50) came to 0.0645 µM. Further, the Ki on 5HT2A receptor [3] amounted to 0.0607 µM.

For the compound `CN1CCN2c3c(cccc31)[C@@H]1CN(CCCc3ncccc3Cl)CC[C@@H]12`, at 5HT2A receptor [7], the “Ca^2+ flux Assay Emax%” value is reported as 18.2% and the EC50 was over 100 µM. In data set [2], this compound registered an AUCINF of 0.774 µg·h/mL, an AUClast of 0.763 µg·h/mL, a Cmax of 0.334 µg/mL and a T1/2 of 1.27 h. Moreover, in data set [2], the Tmax stood at 0.083 h. Further, the “plasma free exposure levels” value in data set [2] (result in words, comparison at similar plasma exposure levels) is recorded as “higher plasma free exposure levels”. Moreover, at 5HT2A receptor [5], the “β-arrestin Emax%” value turned out to be 14.38% and the EC50 was 0.0293 µM. For the same compound, the IC50 on CYP2D6 enzyme is 1.3 µM. Further, the Ki on 5HT2A receptor [3] was determined as 0.0122 µM. Also, the “Mouse PPB Fu” value in [4] worked out at 11.3%.

As for `COc1ccccc1OCCN1CC[C@H]2[C@@H](C1)c1cccc3c1N2CCN3C`, at 5HT2A receptor [1], the “Ca^2+ flux Assay Emax%” value is reported as -0.44% and the EC50 is over 100 µM. For the same compound, on 5HT2A receptor [5], the “β-arrestin Emax%” value amounted to 64.34% and the concentration giving a half-maximal response (EC50) worked out at 0.444 µM. The Ki on 5HT2A receptor [3] is 0.239 µM.

As to `CCN1CCN2c3c(cccc31)[C@@H]1CN(CCCc3cccc4c3OCC4)CC[C@@H]12`, at 5HT2A receptor [7], the “Ca^2+ flux Assay Emax%” value worked out at 61.4% and the EC50 turned out to be 91.6 µM. Further, at 5HT2A receptor [8], the “β-arrestin Emax%” value is given as 74.33% and the concentration giving a half-maximal response (EC50) is 0.333 µM. Moreover, the “Number of mouse head twitches, observed immediately after administration (for 70 min), Median” value with C57BL/6J mice (0-70 min post-dose) came out at 8.5 times. In addition, the “Number of mouse head twitches, observed 24 h after administration (for 30 min), Median” value with C57BL/6J mice (24 h post-dose) was determined as 2 times. Besides, the Ki on 5HT2A receptor [3] is 0.0264 µM.

With `CN1CCN2c3c(cccc31)[C@@H]1CN(CCCc3nccc4c3OCC4)CC[C@@H]12`, at 5HT2A receptor [1], the “Ca^2+ flux Assay Emax%” value was determined as 2.65% and the EC50 is over 100 µM. For the same compound, at 5HT2A receptor [5], the “β-arrestin Emax%” value is given as 40.02% and the EC50 worked out at 0.186 µM. For the same compound, the inhibition constant (Ki) at 5HT2A receptor [3] came out at 0.0509 µM.

Turning to `CNC1(c2ccccc2Cl)CCCCC1=O` (stereo not drawn), the “effect on immobility time / depression-like behavior of mice” value in the data set on C57BL/6J male mice is listed as “significantly reduced the immobility time”.

`COc1ccsc1CCCN1CC[C@H]2[C@@H](C1)c1cccc3c1N2CCN3C`: on 5HT2A receptor [1], the “Ca^2+ flux Assay Emax%” value is recorded as 6.79% and the EC50 was over 100 µM. In addition, on 5HT2A receptor [5], the “β-arrestin Emax%” value is reported as 32.86% and the half-maximal effective concentration (EC50) turned out to be 0.0199 µM. Also, the IC50 at CYP2D6 enzyme came to 1.77 µM. Moreover, the Ki at 5HT2A receptor [3] worked out at 0.0172 µM.

As for `CN1CCN2c3c(cccc31)[C@@H]1CN(CCc3coc4ccccc34)CC[C@@H]12`, on 5HT2A receptor [1], the “Ca^2+ flux Assay Emax%” value was found to be 1.31% and the EC50 was over 100 µM. Moreover, on 5HT2A receptor [5], the “β-arrestin Emax%” value is given as 23.62% and the EC50 was 0.0833 µM. Moreover, on 5HT2A receptor [3], the Ki was 0.0568 µM.

Regarding `CN1CCN2c3c(cccc31)[C@@H]1CN(CCCc3cccc4c3OC(F)(F)O4)CC[C@@H]12`, on 5HT2A receptor [1], the “Ca^2+ flux Assay Emax%” value was 69.50% and the EC50 was 6.15 µM. Also, on 5HT2A receptor [5], the “β-arrestin Emax%” value amounted to 49.91% and the EC50 is 0.0322 µM. Also, at 5HT2A receptor [3], the Ki came to 0.0311 µM.

In the case of `COc1sccc1CCCN1CC[C@H]2[C@@H](C1)c1cccc3c1N2CCN3C`, at 5HT2A receptor [1], the “Ca^2+ flux Assay Emax%” value is 4.07% and the concentration giving a half-maximal response (EC50) was over 100 µM. Also, on 5HT2A receptor [5], the “β-arrestin Emax%” value was 13.87% and the EC50 was determined as 0.0473 µM. Besides, on 5HT2A receptor [3], the Ki worked out at 0.0144 µM.

For `CN1CCN2c3c(cccc31)[C@@H]1CN(CCc3noc4ccccc34)CC[C@@H]12`, on 5HT2A receptor [1], the “Ca^2+ flux Assay Emax%” value is recorded as 33.47% and the EC50 worked out at 5.11 µM. Further, at 5HT2A receptor [5], the “β-arrestin Emax%” value was 54.17% and the EC50 was 0.438 µM. Moreover, the Ki at 5HT2A receptor [3] was found to be 0.0993 µM.

Turning to `CN1CCN2c3c(cccc31)[C@@H]1CN(CCCc3cccc4cccnc34)CC[C@@H]12`, at 5HT2A receptor [1], the “Ca^2+ flux Assay Emax%” value was found to be 33.85% and the EC50 was over 100 µM. In addition, at 5HT2A receptor [5], the “β-arrestin Emax%” value worked out at 43.71% and the EC50 turned out to be 0.0278 µM. In addition, the IC50 at CYP2D6 enzyme was determined as 0.0806 µM. Further, the Ki on 5HT2A receptor [3] stood at 0.0391 µM.

`CN1CCN2c3c(cccc31)[C@@H]1CN(CCCc3ccccc3S(C)(=O)=O)CC[C@@H]12`: at 5HT2A receptor [1], the “Ca^2+ flux Assay Emax%” value was 2.19% and the EC50 is over 100 µM. On 5HT2A receptor [5], the “β-arrestin Emax%” value is on record as 35.01% and the EC50 is 0.144 µM. The inhibitory constant (Ki) on 5HT2A receptor [3] came out at 0.288 µM.

As to `COc1ccccc1CCCN1CCC2C(C1)c1cccc3c1N2CCN3C` (stereo not drawn), the “effect on immobility time / depression-like behavior of mice” value in the data set with C57BL/6J male mice was “no significant effect”. In [2], the AUCINF is 1.071 µg·h/mL, the AUClast came to 1.031 µg·h/mL, the Cmax was 0.346 µg/mL and the T1/2 was found to be 1.6 h. Besides, the time to peak (Tmax) in [2] turned out to be 0.25 h. In addition, at 5HT2A receptor [5], the “β-arrestin Emax%” value is listed as -6.09% and the EC50 was over 100 µM. Also, the IC50 on CYP2D6 enzyme is 0.346 µM. In addition, the Ki on 5HT2A receptor [3] worked out at 0.0195 µM. Also, the “Mouse PPB Fu” value in [4] is given as 2.48%.

For the compound `O=C1CN2c3c(cccc3[C@@H]3CN(CCCc4c(F)ccc5c4OCC5)CC[C@@H]32)N1`, at 5HT2A receptor [7], the “Ca^2+ flux Assay Emax%” value turned out to be 12.92% and the 50% effective concentration (EC50) was over 100 µM. In addition, on 5HT2A receptor [8], the “β-arrestin Emax%” value was found to be 53.0% and the EC50 came out at 0.0976 µM. The same compound showed a F in data set [6] of 24%. Also, in [6] (P.O 10 mg/kg, mouse plasma), the “AUC 0-inf” value worked out at 0.648 µg·h/mL, the AUC0-t is 0.616 µg·h/mL, the Cmax turned out to be 0.242 µg/mL and the Tmax was 0.25 h. The same compound gave a t1/2 in data set [6] (P.O 10 mg/kg, mouse plasma) of 1.8 h. Besides, in data set [6] (i.v 2 mg/kg, mouse plasma), the “AUC 0-inf” value was 0.532 µg·h/mL, the AUC0-t amounted to 0.53 µg·h/mL, the C1 was 3.76 L/h/kg and the Vd is 1.96 L/kg. This compound also had a t1/2 in data set [6] (i.v 2 mg/kg, mouse plasma) of 0.67 h.

The record behind these values is EP4847510A1, “TETRACYCLIC COMPOUND, AND PREPARATION METHOD, PHARMACEUTICAL COMPOSITION, AND USE THEREOF” (dated 2026).
